Measurements: publication PMC5934274 (Journal of medicinal chemistry, 2016)
Values belong to the compound of their own block, whether it stands above or below them.

The chains behind the UniProt entries cited, without tags or fusion partners. Residues count along the entry.
UniProt P09874, whole entry: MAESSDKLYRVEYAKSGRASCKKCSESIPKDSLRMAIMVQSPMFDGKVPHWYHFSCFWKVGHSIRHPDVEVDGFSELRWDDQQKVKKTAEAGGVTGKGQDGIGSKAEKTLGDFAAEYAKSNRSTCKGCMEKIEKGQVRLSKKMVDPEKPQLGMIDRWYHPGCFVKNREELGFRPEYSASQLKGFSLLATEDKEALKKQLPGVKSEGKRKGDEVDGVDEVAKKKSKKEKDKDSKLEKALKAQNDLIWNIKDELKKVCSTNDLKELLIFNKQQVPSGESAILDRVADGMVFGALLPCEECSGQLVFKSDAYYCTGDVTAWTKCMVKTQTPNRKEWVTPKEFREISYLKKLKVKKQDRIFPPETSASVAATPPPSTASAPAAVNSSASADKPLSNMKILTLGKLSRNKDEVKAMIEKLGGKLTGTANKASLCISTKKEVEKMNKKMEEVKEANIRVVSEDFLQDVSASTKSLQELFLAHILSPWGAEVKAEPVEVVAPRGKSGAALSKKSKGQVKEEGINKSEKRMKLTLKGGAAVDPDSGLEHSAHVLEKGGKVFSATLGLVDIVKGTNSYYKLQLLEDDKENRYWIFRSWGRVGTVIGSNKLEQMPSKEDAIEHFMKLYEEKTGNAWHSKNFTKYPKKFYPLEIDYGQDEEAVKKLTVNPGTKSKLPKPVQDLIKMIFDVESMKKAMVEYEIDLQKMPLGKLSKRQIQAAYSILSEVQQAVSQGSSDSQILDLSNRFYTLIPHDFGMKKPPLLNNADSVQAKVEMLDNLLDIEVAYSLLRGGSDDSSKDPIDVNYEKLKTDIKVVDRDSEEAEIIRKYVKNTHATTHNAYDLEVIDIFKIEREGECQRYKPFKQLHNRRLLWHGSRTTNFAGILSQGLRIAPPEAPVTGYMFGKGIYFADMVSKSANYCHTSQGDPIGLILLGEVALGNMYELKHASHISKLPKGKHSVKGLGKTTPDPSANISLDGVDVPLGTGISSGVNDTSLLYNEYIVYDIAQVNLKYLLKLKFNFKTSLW
UniProt Q9H2K2, 959-1164: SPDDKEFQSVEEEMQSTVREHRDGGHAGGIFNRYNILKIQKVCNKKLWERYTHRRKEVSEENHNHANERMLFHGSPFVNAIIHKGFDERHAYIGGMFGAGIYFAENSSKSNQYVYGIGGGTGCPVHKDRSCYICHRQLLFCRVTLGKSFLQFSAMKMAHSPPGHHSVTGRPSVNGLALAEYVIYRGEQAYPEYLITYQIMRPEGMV
UniProt O95271, 1112-1317: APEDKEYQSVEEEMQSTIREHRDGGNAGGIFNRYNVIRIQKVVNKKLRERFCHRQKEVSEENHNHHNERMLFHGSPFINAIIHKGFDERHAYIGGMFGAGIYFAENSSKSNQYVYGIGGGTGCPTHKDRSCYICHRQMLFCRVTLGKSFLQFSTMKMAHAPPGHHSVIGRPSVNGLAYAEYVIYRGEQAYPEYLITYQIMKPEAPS

Tests used:
Format in all cases: biochemical
PARP1 = PARP1 (Homo sapiens, UniProt P09874); test: In vitro ADP-ribosylation assay, PARP1; settings: PARP1 FL (full length); NAD+ at or below KM
TNKS2 = TNKS2 (Homo sapiens, UniProt Q9H2K2); test: In vitro ADP-ribosylation assay, TNKS2; settings: read-out: KM NAD+; TNKS2 ART
TNKS1 = TNKS1 (Homo sapiens, UniProt O95271); test: In vitro ADP-ribosylation assay, TNKS1; settings: read-out: KM NAD+; TNKS1 ART
PARP15 = target: T1, PARP15 (Homo sapiens, UniProt Q460N3); test: In vitro ADP-ribosylation assay, PARP15; settings: PARP15 ART
T1 sequence (Q460N3 1-678): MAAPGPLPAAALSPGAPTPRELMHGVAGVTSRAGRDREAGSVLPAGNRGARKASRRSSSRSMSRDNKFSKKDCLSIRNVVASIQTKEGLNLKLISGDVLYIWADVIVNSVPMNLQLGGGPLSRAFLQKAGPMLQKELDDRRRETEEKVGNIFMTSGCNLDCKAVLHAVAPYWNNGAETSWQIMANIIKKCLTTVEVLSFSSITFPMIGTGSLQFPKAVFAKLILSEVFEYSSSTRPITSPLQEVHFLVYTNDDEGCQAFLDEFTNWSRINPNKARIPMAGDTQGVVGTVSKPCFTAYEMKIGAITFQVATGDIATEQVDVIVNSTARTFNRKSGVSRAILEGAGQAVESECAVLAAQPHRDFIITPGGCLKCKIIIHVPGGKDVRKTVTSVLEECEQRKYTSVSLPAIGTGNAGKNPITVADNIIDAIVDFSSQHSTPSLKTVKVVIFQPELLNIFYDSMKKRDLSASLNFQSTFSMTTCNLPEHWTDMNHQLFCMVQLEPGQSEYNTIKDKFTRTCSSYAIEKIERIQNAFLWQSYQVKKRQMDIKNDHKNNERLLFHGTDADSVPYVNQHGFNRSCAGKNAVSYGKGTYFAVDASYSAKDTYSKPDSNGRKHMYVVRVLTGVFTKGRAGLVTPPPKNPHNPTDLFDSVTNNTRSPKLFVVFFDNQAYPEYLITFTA

PARP16 = target: T2, PARP16 (Homo sapiens, UniProt Q8N5Y8); test: In vitro ADP-ribosylation assay, PARP16; settings: PARP16 FL (full length)
T2 sequence (Q8N5Y8 1-322): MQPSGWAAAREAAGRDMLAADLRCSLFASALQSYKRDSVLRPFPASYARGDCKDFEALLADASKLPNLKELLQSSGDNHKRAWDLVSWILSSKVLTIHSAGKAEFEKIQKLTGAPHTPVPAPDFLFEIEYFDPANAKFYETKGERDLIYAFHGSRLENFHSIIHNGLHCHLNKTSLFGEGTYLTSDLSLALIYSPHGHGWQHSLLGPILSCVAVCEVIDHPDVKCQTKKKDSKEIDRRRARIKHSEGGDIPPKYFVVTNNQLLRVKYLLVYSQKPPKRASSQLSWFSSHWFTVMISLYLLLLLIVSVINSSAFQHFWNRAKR

pIC50 (PARP1): 6.84±0.68
SMILES: O=C(COc1cccc2c(=O)[nH]ccc12)c1ccccc1 [1 (UPF1069)]

Km (TNKS2): 251 ± 56 µM
Km (TNKS1): 31 ± 4 µM
SMILES: NC(=O)c1ccc[n+]([C@@H]2O[C@H](COP(=O)([O-])OP(=O)(O)OC[C@H]3O[C@@H](n4cnc5c(N)ncnc54)[C@H](O)[C@@H]3O)[C@@H](O)[C@H]2O)c1 [NAD+, nicotinamide adenine dinucleotide]

IC50 (PARP15): n.i.
pIC50 (PARP15): n.i.
IC50 (PARP16): n.i.
pIC50 (PARP16): n.i.
SMILES: C[C@]1(c2nc3c(C(N)=O)cccc3[nH]2)CCCN1 [Veliparib]
